Patent US7837757B2, “Enhanced abscisic acid and fertilizer performance” (Valent BioSciences Corporation, priority 2007, dated 2010)

System: tomato leaf
Conditions: in vivo

**Q.** How did the “Number of Injured leaves” value turn out when “(S)-5-(1-hydroxy-2,6,6,-trimethyl-4-oxo-2-cyclohexen-1-yl)-3-methyl-(2Z,4E)-pentadienoic acid [ABA, reference compound]” was run?
**A.** 0.0

**Q.** And the “Number of injured leaf” value?
**A.** 0.0
